“Also recorded” adds a separate entry of the source.
Test: Study 3: metformin pharmacokinetics alone or with filgotinib in healthy subjects
Conditions: filgotinib 200 mg once daily, metformin 850 mg

**Q.** With `CN(C)C(=N)N=C(N)N` [Metformin, metformin] as the compound, how does the “effect of filgotinib on metformin exposure (AUCinf, C max) (in words)” value read?
**A.** did not alter; also recorded: no effect; also recorded: remained unchanged
